Results from PubChem BioAssay (NCI).
The list shows a part of the results, in another mix than the full data.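 Each cell line was grown in a 96-well plate and treated with one concentration of compound for 48 hours. Values below 10 were considered active.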 Active and inactive are the calls of the source.

Key:
Assay in all cases: NCI-60 one-dose screen, 48 h (100 = growth as untreated, 0 = no growth, -100 = all killed)
Details in all cases: 10 µM unless noted
MOLT-4 leukemia = system: MOLT-4 leukemia
SR leukemia = system: SR leukemia
RPMI-8226 leukemia = system: RPMI-8226 leukemia
OVCAR-8 ovarian = system: OVCAR-8 ovarian
OVCAR-5 ovarian = system: OVCAR-5 ovarian
OVCAR-4 ovarian = system: OVCAR-4 ovarian
SK-OV-3 ovarian = system: SK-OV-3 ovarian
IGROV1 ovarian = system: IGROV1 ovarian
HS 578T breast = system: HS 578T breast
NCI/ADR-RES ovarian = system: NCI/ADR-RES ovarian
T-47D breast = system: T-47D breast
BT-549 breast = system: BT-549 breast
MDA-MB-435 melanoma = system: MDA-MB-435 melanoma
SW-620 colon = system: SW-620 colon
MCF7 breast = system: MCF7 breast
HCT-116 colon = system: HCT-116 colon
HCC-2998 colon = system: HCC-2998 colon
KM12 colon = system: KM12 colon
OVCAR-3 ovarian = system: OVCAR-3 ovarian

Measured: growth

ClCCN1c2ccccc2Oc2ccccc21
inactive: MOLT-4 leukemia 109% | SR leukemia 93.1% | RPMI-8226 leukemia 98.4% | OVCAR-8 ovarian 102% | OVCAR-5 ovarian 105% | OVCAR-4 ovarian 103% | SK-OV-3 ovarian 114% | IGROV1 ovarian 103% | HS 578T breast 117% | NCI/ADR-RES ovarian 106% | T-47D breast 99.2% | BT-549 breast 110% | MDA-MB-435 melanoma 100% | SW-620 colon 99.4% | MCF7 breast 90.7% | HCT-116 colon 104% | HCC-2998 colon 97.5% | KM12 colon 101%

O=[As](O)(c1ccc(Cl)cc1)C1CCCCC1O (stereo not given)
inactive: MOLT-4 leukemia 82.4% | SR leukemia 96% | RPMI-8226 leukemia 59.9% | OVCAR-8 ovarian 88.9% | OVCAR-5 ovarian 90.3% | OVCAR-4 ovarian 98.5% | SK-OV-3 ovarian 101% | OVCAR-3 ovarian 96.6% | HS 578T breast 96.3% | NCI/ADR-RES ovarian 95.8% | T-47D breast 75.6% | BT-549 breast 116% | MDA-MB-435 melanoma 104% | SW-620 colon 74.3% | MCF7 breast 73.2% | HCT-116 colon 83.4% | HCC-2998 colon 101% | KM12 colon 104%

CCCCCCCNP(=S)(Cl)Cl
inactive: MOLT-4 leukemia 104% | SR leukemia 104% | RPMI-8226 leukemia 104% | OVCAR-8 ovarian 106% | OVCAR-5 ovarian 103% | OVCAR-4 ovarian 96.1% | SK-OV-3 ovarian 94% | OVCAR-3 ovarian 107% | HS 578T breast 114% | NCI/ADR-RES ovarian 103% | T-47D breast 87.4% | BT-549 breast 102% | MDA-MB-435 melanoma 98.1% | SW-620 colon 104% | MCF7 breast 94.6% | HCT-116 colon 105% | HCC-2998 colon 92.6% | KM12 colon 105%

ClCCNCc1cccc(Cl)c1
inactive: MOLT-4 leukemia 84.8% | SR leukemia 90.5% | RPMI-8226 leukemia 102% | OVCAR-8 ovarian 99.4% | OVCAR-5 ovarian 107% | OVCAR-4 ovarian 97.7% | SK-OV-3 ovarian 97.7% | IGROV1 ovarian 110% | OVCAR-3 ovarian 114% | NCI/ADR-RES ovarian 109% | T-47D breast 96.9% | BT-549 breast 101% | MDA-MB-435 melanoma 102% | SW-620 colon 100% | MCF7 breast 90.7% | HCT-116 colon 102% | HCC-2998 colon 109% | KM12 colon 109%

O=P(CCl)(Sc1ccc(Cl)cc1)N(CCCl)CCCl (stereo not given)
inactive: MOLT-4 leukemia 82.8% | SR leukemia 86% | RPMI-8226 leukemia 77.6% | OVCAR-8 ovarian 91.2% | OVCAR-5 ovarian 92.9% | OVCAR-4 ovarian 84.6% | SK-OV-3 ovarian 97.5% | IGROV1 ovarian 96.4% | OVCAR-3 ovarian 98.1% | NCI/ADR-RES ovarian 100% | T-47D breast 86.1% | BT-549 breast 92.2% | MDA-MB-435 melanoma 96% | SW-620 colon 92.2% | MCF7 breast 95.5% | HCT-116 colon 94.5% | HCC-2998 colon 98.5% | KM12 colon 103%

Cc1cccc(Nc2c([N+](=O)[O-])cc([N+](=O)[O-])cc2[N+](=O)[O-])c1
inactive: MOLT-4 leukemia 78.9% | SR leukemia 91.8% | RPMI-8226 leukemia 62.8% | OVCAR-8 ovarian 86.1% | OVCAR-5 ovarian 103% | SK-OV-3 ovarian 94.3% | IGROV1 ovarian 85.7% | OVCAR-3 ovarian 13.9% | HS 578T breast 96.1% | NCI/ADR-RES ovarian 92.9% | T-47D breast 60.8% | BT-549 breast 104% | MDA-MB-435 melanoma 101% | SW-620 colon 101% | MCF7 breast 68% | HCT-116 colon 79.7% | HCC-2998 colon 104% | KM12 colon 93.2%

Nc1cccc([As](=O)(O)c2ccccc2)c1
inactive: MOLT-4 leukemia 103% | SR leukemia 111% | RPMI-8226 leukemia 93.3% | OVCAR-8 ovarian 105% | OVCAR-5 ovarian 97.3% | OVCAR-4 ovarian 100% | SK-OV-3 ovarian 103% | OVCAR-3 ovarian 109% | HS 578T breast 114% | NCI/ADR-RES ovarian 97.1% | T-47D breast 107% | BT-549 breast 117% | MDA-MB-435 melanoma 105% | SW-620 colon 106% | MCF7 breast 92.1% | HCT-116 colon 96.2% | HCC-2998 colon 93.5% | KM12 colon 114%

CN(CCCl)CC1OC(O)C(O)C(O)C1O (stereo not given)
inactive: MOLT-4 leukemia 101% | SR leukemia 92.3% | RPMI-8226 leukemia 104% | OVCAR-8 ovarian 94.6% | OVCAR-5 ovarian 99.9% | OVCAR-4 ovarian 98.4% | SK-OV-3 ovarian 104% | OVCAR-3 ovarian 110% | HS 578T breast 104% | NCI/ADR-RES ovarian 107% | T-47D breast 97.9% | BT-549 breast 101% | MDA-MB-435 melanoma 100% | SW-620 colon 103% | MCF7 breast 99.6% | HCT-116 colon 98% | HCC-2998 colon 112% | KM12 colon 111%

Cc1cc(C)cc(OP(=O)(Cl)Oc2cc(C)cc(C)c2)c1
inactive: MOLT-4 leukemia 99.9% | SR leukemia 99.4% | RPMI-8226 leukemia 120% | OVCAR-8 ovarian 120% | OVCAR-5 ovarian 106% | SK-OV-3 ovarian 113% | IGROV1 ovarian 99.4% | OVCAR-3 ovarian 109% | HS 578T breast 97.1% | NCI/ADR-RES ovarian 99.4% | T-47D breast 106% | BT-549 breast 111% | MDA-MB-435 melanoma 100% | SW-620 colon 103% | MCF7 breast 108% | HCT-116 colon 109% | HCC-2998 colon 102% | KM12 colon 109%

ClCCN1c2ccccc2Sc2ccccc21
inactive: MOLT-4 leukemia 99.2% | SR leukemia 98.8% | RPMI-8226 leukemia 98.5% | OVCAR-8 ovarian 100% | OVCAR-5 ovarian 121% | OVCAR-4 ovarian 98% | SK-OV-3 ovarian 109% | IGROV1 ovarian 108% | HS 578T breast 100% | NCI/ADR-RES ovarian 103% | T-47D breast 91.2% | BT-549 breast 107% | MDA-MB-435 melanoma 98.5% | SW-620 colon 98.3% | MCF7 breast 102% | HCT-116 colon 101% | HCC-2998 colon 94.8% | KM12 colon 97.3%

Cc1ccc(C)c(C(=O)N(CCCl)CCCl)c1
inactive: MOLT-4 leukemia 110% | SR leukemia 101% | RPMI-8226 leukemia 103% | OVCAR-8 ovarian 102% | OVCAR-5 ovarian 102% | OVCAR-4 ovarian 110% | SK-OV-3 ovarian 97.7% | IGROV1 ovarian 99.2% | OVCAR-3 ovarian 95.8% | NCI/ADR-RES ovarian 102% | T-47D breast 105% | BT-549 breast 106% | MDA-MB-435 melanoma 92.8% | SW-620 colon 95.6% | MCF7 breast 93.2% | HCT-116 colon 104% | HCC-2998 colon 98.2% | KM12 colon 99.3%

O=Cc1sc(N(CCCl)CCCl)nc1Cl
inactive: MOLT-4 leukemia 93% | SR leukemia 88.9% | OVCAR-8 ovarian 92.8% | OVCAR-5 ovarian 111% | OVCAR-4 ovarian 111% | SK-OV-3 ovarian 97% | IGROV1 ovarian 103% | OVCAR-3 ovarian 102% | HS 578T breast 89.3% | NCI/ADR-RES ovarian 102% | T-47D breast 88.3% | BT-549 breast 96.2% | MDA-MB-435 melanoma 102% | SW-620 colon 111% | MCF7 breast 98.5% | HCT-116 colon 91.3% | HCC-2998 colon 122% | KM12 colon 106%

O=P(O)(O)F
inactive: MOLT-4 leukemia 108% | SR leukemia 107% | OVCAR-8 ovarian 99.1% | OVCAR-5 ovarian 96.5% | OVCAR-4 ovarian 116% | SK-OV-3 ovarian 129% | IGROV1 ovarian 105% | OVCAR-3 ovarian 106% | HS 578T breast 109% | NCI/ADR-RES ovarian 111% | T-47D breast 106% | BT-549 breast 111% | MDA-MB-435 melanoma 102% | SW-620 colon 102% | MCF7 breast 100% | HCT-116 colon 109% | HCC-2998 colon 113% | KM12 colon 102%

Cc1ccc(SP(=O)(CCl)N(CCCl)CCCl)cc1 (stereo not given)
inactive: MOLT-4 leukemia 94.3% | SR leukemia 72.7% | RPMI-8226 leukemia 91.3% | OVCAR-8 ovarian 94.9% | OVCAR-5 ovarian 92.9% | OVCAR-4 ovarian 95.6% | SK-OV-3 ovarian 104% | OVCAR-3 ovarian 106% | NCI/ADR-RES ovarian 99.1% | T-47D breast 94.8% | BT-549 breast 98.2% | MDA-MB-435 melanoma 98.7% | SW-620 colon 97.1% | MCF7 breast 99.1% | HCT-116 colon 103% | HCC-2998 colon 108% | KM12 colon 105%

Cc1nn(Cc2ccccc2)c(C)c1C1(O)C[C@H](CC#N)OC1=O (stereo not given in full)
inactive: MOLT-4 leukemia 128% | SR leukemia 118% | RPMI-8226 leukemia 108% | OVCAR-8 ovarian 112% | OVCAR-5 ovarian 107% | OVCAR-4 ovarian 115% | SK-OV-3 ovarian 113% | IGROV1 ovarian 121% | OVCAR-3 ovarian 135% | NCI/ADR-RES ovarian 67.3% | T-47D breast 118% | BT-549 breast 95.8% | MDA-MB-435 melanoma 121% | SW-620 colon 110% | MCF7 breast 120% | HCT-116 colon 109% | HCC-2998 colon 11.2% | KM12 colon 113%

COc1ccc(C(=O)N(CCCl)CCCl)cc1OC
inactive: MOLT-4 leukemia 83% | SR leukemia 74% | RPMI-8226 leukemia 98.2% | OVCAR-8 ovarian 97.3% | OVCAR-5 ovarian 96.6% | OVCAR-4 ovarian 103% | SK-OV-3 ovarian 104% | IGROV1 ovarian 105% | OVCAR-3 ovarian 109% | NCI/ADR-RES ovarian 105% | T-47D breast 95.5% | BT-549 breast 105% | MDA-MB-435 melanoma 105% | SW-620 colon 91.8% | MCF7 breast 79.1% | HCT-116 colon 100% | HCC-2998 colon 93.7% | KM12 colon 107%

COC1OC(CNCCCl)C2OC(C)(C)OC12 (stereo not given)
inactive: MOLT-4 leukemia 115% | SR leukemia 114% | RPMI-8226 leukemia 119% | OVCAR-8 ovarian 98.4% | OVCAR-5 ovarian 97.8% | OVCAR-4 ovarian 102% | SK-OV-3 ovarian 94.8% | OVCAR-3 ovarian 126% | HS 578T breast 129% | NCI/ADR-RES ovarian 106% | T-47D breast 104% | BT-549 breast 87.3% | MDA-MB-435 melanoma 115% | SW-620 colon 115% | MCF7 breast 104% | HCT-116 colon 96% | HCC-2998 colon 75.7% | KM12 colon 113%
